Where two headings read alike, the source gives them in different places.
Columns and labels:
[1] = mouse, in vivo
in vivo = details: female, mouse, po
[2] = rat, serum
[3] = human, serum

COc1cc(-c2nn(CCN3CCC(N(C)C)CC3)c3ncnc(N)c23)ccc1NC(=O)OC(C)(C)C [Compound 506, tert-butyl N-[4-[4-amino-1-[2-[4-(dimethylamino)-1-piperidyl]ethyl]pyrazolo[3,4-d]pyrimidin-3-yl]-2-methoxy-phenyl]carbamate]
Oral Bioavailability [1]: moderate
bioavailability (in vivo): 25%
fraction unbound [2]: 0.191
fraction unbound [3]: 0.094
